Results on two molecules are retold here after ChEMBL document CHEMBL5316347, “Design, Synthesis, and Biological Evaluation of Bipyridazine Derivatives as Stimulator of Interferon Genes (STING) Receptor Agonists” (J Med Chem, 2023).

Each structure is given as a SMILES string. The source made the active and inactive calls. The rule behind the calls is not given here.

What all share (assay type): cell-based
Assay [1] has as its target T1, Stimulator of interferon genes protein (Mus musculus) (UniProt Q3TBT3).
T1 sequence (whole entry): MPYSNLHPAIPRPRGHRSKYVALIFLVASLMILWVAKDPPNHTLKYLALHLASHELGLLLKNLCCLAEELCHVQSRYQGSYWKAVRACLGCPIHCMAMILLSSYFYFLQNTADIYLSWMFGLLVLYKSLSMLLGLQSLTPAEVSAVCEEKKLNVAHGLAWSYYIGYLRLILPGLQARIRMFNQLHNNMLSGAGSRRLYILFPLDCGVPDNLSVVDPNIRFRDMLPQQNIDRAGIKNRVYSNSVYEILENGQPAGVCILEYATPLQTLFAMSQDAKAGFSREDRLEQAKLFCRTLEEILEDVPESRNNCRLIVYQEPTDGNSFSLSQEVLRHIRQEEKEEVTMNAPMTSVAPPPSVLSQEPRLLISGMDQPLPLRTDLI
Kind of assay: Agonist activity at STING in mouse RAW-Lucia ISG cells assessed as induction of TBK1 S172 phosphorylation at 50 uM measured upto 6 hrs by Western blotting analysis. Particulars: filed as agonist.

The target of assay [2] is T1, Stimulator of interferon genes protein (Mus musculus). The assay can be described thus: Agonist activity at STING in mouse RAW-Lucia ISG cells assessed as induction of IRF3 S396 phosphorylation at 50 uM measured upto 6 hrs by Western blotting analysis. Particulars: filed as agonist.
The target is the same in assay [3]. The assay can be described thus: Agonist activity at STING in mouse RAW-Lucia ISG cells assessed as induction of p65 S536 phosphorylation at 50 uM measured upto 6 hrs by Western blotting analysis. Particulars: filed as agonist.
Assay [4] has the same target. Kind of assay: Agonist activity at STING in mouse RAW-Lucia ISG cells assessed as induction of STAT3 Y705 phosphorylation at 50 uM measured upto 6 hrs by Western blotting analysis. Particulars: filed as agonist. In general terms: A western blot detects proteins with antibodies after separation by electrophoresis.
The target is the same in assay [5]. The assay can be described thus: Agonist activity at STING in cGAS knockout mouse RAW-Lucia ISG cells assessed as induction of TBK1 S172 phosphorylation at 50 uM measured upto 3 hrs by Western blotting analysis. The following applies: filed as agonist.
Assay [6] has the same target. The assay can be described thus: Agonist activity at STING in cGAS knockout mouse RAW-Lucia ISG cells assessed as induction of IRF3 S396 phosphorylation at 50 uM measured upto 3 hrs by Western blotting analysis. Particulars: filed as agonist.
Assay [7] has the same target. Kind of assay: Agonist activity at STING in cGAS knockout mouse RAW-Lucia ISG cells assessed as induction of p65 S536 phosphorylation at 50 uM measured upto 3 hrs by Western blotting analysis. Particulars: filed as agonist.
Assay [8] shares this target. Kind of assay: Agonist activity at STING in cGAS knockout mouse RAW-Lucia ISG cells assessed as induction of STAT3 Y705 phosphorylation at 50 uM measured upto 3 hrs by Western blotting analysis. The following applies: filed as agonist.
Assay [9] shares this target. The assay can be described thus: Agonist activity at STING in STING knockout mouse RAW-Lucia ISG cells assessed as induction of TBK1 S172 phosphorylation at 50 uM measured upto 3 hrs by Western blotting analysis.
Assay [10] has the same target. The assay can be described thus: Agonist activity at STING in STING knockout mouse RAW-Lucia ISG cells assessed as induction of IRF3 S396 phosphorylation at 50 uM measured upto 3 hrs by Western blotting analysis.
Assay [11] has the same target. The assay can be described thus: Agonist activity at STING in STING knockout mouse RAW-Lucia ISG cells assessed as induction of p65 S536 phosphorylation at 50 uM measured upto 3 hrs by Western blotting analysis.
The target is the same in assay [12]. The assay can be described thus: Agonist activity at STING in STING knockout mouse RAW-Lucia ISG cells assessed as induction of STAT3 Y705 phosphorylation at 50 uM measured upto 3 hrs by Western blotting analysis.
Assay [13] has the same target. The assay can be described thus: Agonist activity at STING in mouse RAW-Lucia ISG cells assessed as induction of TBK1 S172 phosphorylation at 20 uM measured upto 6 hrs by Western blotting analysis. Particulars: filed as agonist.
The target is the same in assay [14]. The assay can be described thus: Agonist activity at STING in mouse RAW-Lucia ISG cells assessed as induction of IRF3 S396 phosphorylation at 20 uM measured upto 6 hrs by Western blotting analysis. The following applies: filed as agonist.
Assay [15] has the same target. The assay can be described thus: Agonist activity at STING in mouse RAW-Lucia ISG cells assessed as induction of p65 S536 phosphorylation at 20 uM measured upto 6 hrs by Western blotting analysis. Particulars: filed as agonist.
The target is the same in assay [16]. The assay can be described thus: Agonist activity at STING in mouse RAW-Lucia ISG cells assessed as induction of STAT3 Y705 phosphorylation at 20 uM measured upto 6 hrs by Western blotting analysis. Particulars: filed as agonist.
Assay [17] has the same target. Kind of assay: Agonist activity at STING in cGAS knockout mouse RAW-Lucia ISG cells assessed as induction of TBK1 S172 phosphorylation at 20 uM measured upto 3 hrs by Western blotting analysis. Particulars: filed as agonist.
For assay [18] the target is unchanged. Kind of assay: Agonist activity at STING in cGAS knockout mouse RAW-Lucia ISG cells assessed as induction of IRF3 S396 phosphorylation at 20 uM measured upto 3 hrs by Western blotting analysis. The following applies: filed as agonist.
The target is the same in assay [19]. The assay can be described thus: Agonist activity at STING in cGAS knockout mouse RAW-Lucia ISG cells assessed as induction of p65 S536 phosphorylation at 20 uM measured upto 3 hrs by Western blotting analysis. The following applies: filed as agonist.
The target is the same in assay [20]. The assay can be described thus: Agonist activity at STING in cGAS knockout mouse RAW-Lucia ISG cells assessed as induction of STAT3 Y705 phosphorylation at 20 uM measured upto 3 hrs by Western blotting analysis. Particulars: filed as agonist.
For assay [21] the target is unchanged. The assay can be described thus: Agonist activity at STING in STING knockout mouse RAW-Lucia ISG cells assessed as induction of TBK1 S172 phosphorylation at 20 uM measured upto 3 hrs by Western blotting analysis.
For assay [22] the target is unchanged. The assay can be described thus: Agonist activity at STING in STING knockout mouse RAW-Lucia ISG cells assessed as induction of IRF3 S396 phosphorylation at 20 uM measured upto 3 hrs by Western blotting analysis.
Assay [23] has the same target. The assay can be described thus: Agonist activity at STING in STING knockout mouse RAW-Lucia ISG cells assessed as induction of p65 S536 phosphorylation at 20 uM measured upto 3 hrs by Western blotting analysis.
Assay [24] has the same target. Kind of assay: Agonist activity at STING in STING knockout mouse RAW-Lucia ISG cells assessed as induction of STAT3 Y705 phosphorylation at 20 uM measured upto 3 hrs by Western blotting analysis.

Turning to `O=C(Nc1cc(Br)c(F)cc1C(=O)O)c1ccc(-c2ccnnc2)nn1`, the outcome in assay [1], in assay [2], in assay [3], in assay [4], in [5] and in [6] was Active. Further, the outcome in assay [7] and in [8] was Active. Also, the result in assay [9], in [10], in assay [11] and in [12] was inactive.
`C#Cc1cc(NC(=O)c2ccc(-c3ccnnc3)nn2)c(C(=O)O)cc1F`: the result in assay [13], in [14], in assay [15], in assay [16], in [17] and in assay [18] was Active. The outcome in assay [19] and in assay [20] was Active. Also, the outcome in [21], in assay [22], in assay [23] and in assay [24] was inactive.
